Assay results as given in US20250368662A1, “INHIBITORS OF INDOLEAMINE 2,3-DIOXYGENASE 1 (IDO1) AND TRYPTOPHAN 2,3-DIOXYGENASE (TDO) AND METHODS OF USING SAME” (University of South Carolina, priority 2024, published 2025).

Amino acid sequences for entries named in this document (tags omitted).
UniProt P14902, whole entry: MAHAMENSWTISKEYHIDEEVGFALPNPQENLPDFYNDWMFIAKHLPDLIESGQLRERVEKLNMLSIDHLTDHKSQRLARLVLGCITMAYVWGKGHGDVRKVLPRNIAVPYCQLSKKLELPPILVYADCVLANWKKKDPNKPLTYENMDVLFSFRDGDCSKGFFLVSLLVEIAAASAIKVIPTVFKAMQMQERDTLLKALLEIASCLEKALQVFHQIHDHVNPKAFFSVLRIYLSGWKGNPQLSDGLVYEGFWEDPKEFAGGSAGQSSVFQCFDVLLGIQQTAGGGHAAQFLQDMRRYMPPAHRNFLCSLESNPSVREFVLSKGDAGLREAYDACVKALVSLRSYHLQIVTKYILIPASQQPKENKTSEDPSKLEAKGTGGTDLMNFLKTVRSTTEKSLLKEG
UniProt P48775, whole entry: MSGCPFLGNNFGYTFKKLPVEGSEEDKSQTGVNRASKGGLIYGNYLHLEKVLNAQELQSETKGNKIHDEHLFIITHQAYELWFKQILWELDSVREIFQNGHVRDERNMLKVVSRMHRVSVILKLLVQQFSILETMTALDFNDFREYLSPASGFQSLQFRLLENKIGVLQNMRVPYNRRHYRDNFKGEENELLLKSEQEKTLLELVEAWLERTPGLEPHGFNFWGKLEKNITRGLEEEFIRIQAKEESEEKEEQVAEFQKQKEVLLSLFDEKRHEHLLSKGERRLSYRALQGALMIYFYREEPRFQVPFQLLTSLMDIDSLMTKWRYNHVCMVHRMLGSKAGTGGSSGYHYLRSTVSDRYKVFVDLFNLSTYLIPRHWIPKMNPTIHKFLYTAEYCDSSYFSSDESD

What was measured:
IDO1 = IDO1 (Homo sapiens, UniProt P14902); assay: HeLa cell-based assay for inhibiting IDO1; conditions: read-out: EC50/μM IDO1; HeLa cells, 100 ng/ml IFN-γ, 0.3 mM Trp, 48 hours incubation; tested form: TFA
TDO = TDO (Homo sapiens, UniProt P48775); assay: SW-48 cell-based assay for inhibiting TDO; conditions: read-out: EC50/μM TDO; SW48 cells, 0.3 mM Trp, 48 hours incubation; tested form: TFA

SMILES | EC50 (IDO1) | EC50 (TDO)
COc1ccc(C2=CSC3=N[C@@H](CCCCNC(=O)Nc4cccc5ccccc45)CN23)cc1 | 6.2 µM | 9.4 µM
O=C(NCCCC[C@H]1CN2C(c3ccc(Cl)cc3)=CSC2=N1)Nc1ccccc1 | 2.3 µM | 12.2 µM
